Measured values: PubChem BioAssay AID463 (The Scripps Research Institute Molecular Screening Center, 2006)
This is a selection; strong and weak results do not stand in their true shares. Calls of active or inactive are those of the source.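 How the source made its calls: active means inhibition above the mean inhibition of all tested compounds plus 3 SD (cut at about 28% in these data); inactive means the rest.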

Assay: cytotoxicity toward Jurkat T cells, primary screen, cytotoxicity control, cell-based, Jurkat E6.1, 60K MLSMR library (AID 463)
Settings: Jurkat E6.1 viability, ATP luminescence, 48 h; at 4 µM; stronger effect = higher value

Structure (SMILES) | inhibition
Cc1ccc(C)c(NP(C)(=O)Oc2ccccc2)c1 (stereo not given) | inactive: -4.6%
Cc1nc2ccc3ccccc3c2s1.O=[N+]([O-])c1cc([N+](=O)[O-])c(O)c([N+](=O)[O-])c1 | inactive: -5.1%
CCOP(C)(=S)SCC(=O)NC(C)C(=O)O (stereo not given) | inactive: 0.6%
CP(=S)(Nn1cnnc1)Oc1ccccc1 (stereo not given) | inactive: 2.2%
Cc1ccc(NP(C)(=O)Oc2ccccc2)c(C)c1 (stereo not given) | inactive: -5.5%
COc1ccccc1OP(C)(=O)Nc1ccc(C)cc1 (stereo not given) | inactive: 5.5%
CP(=O)(Nc1ccccn1)Oc1ccccc1 (stereo not given) | inactive: -0.4%
COc1ccccc1OP(C)(=O)Nc1ccc(C)c(C)c1 (stereo not given) | inactive: -5.1%
Cc1nc2ccc3ccccc3c2o1.O=[N+]([O-])c1cc([N+](=O)[O-])c(O)c([N+](=O)[O-])c1 | inactive: 1.9%
COc1ccccc1OP(C)(=O)Nc1c(C)n(C)n(-c2ccccc2)c1=O (stereo not given) | inactive: -1.1%
CP(=O)(Oc1ccccc1)N1CCOC1=O (stereo not given) | inactive: -1.9%
CCOP(C)(=S)SCC(=O)NC(C)(CC)C(=O)O (stereo not given) | inactive: 5.3%
Cc1ccccc1NP(C)(=O)Nc1ccccc1C | inactive: 1%
CN(C)CCOC(=O)C(O)(c1ccccc1)C1CCCCC1 (stereo not given) | inactive: -2.6%
CP(=O)(Nc1ccccc1F)Oc1ccccc1 (stereo not given) | inactive: 0.3%
